Results as given in PubChem BioAssay AID1645854 (Buhrlage Lab, Dana-Farber Cancer Institute and Novartis …, 2021).
Only a part is listed here, and it is no random draw. Active and inactive are the calls of the source. No stated cut-off is given here; in the data, active means inhibition above about 30%; inactive means the rest.

Sequences of proteins named here, by UniProt entry; tags and fusion partners are left off.
UniProt Q93009, whole entry, looked up: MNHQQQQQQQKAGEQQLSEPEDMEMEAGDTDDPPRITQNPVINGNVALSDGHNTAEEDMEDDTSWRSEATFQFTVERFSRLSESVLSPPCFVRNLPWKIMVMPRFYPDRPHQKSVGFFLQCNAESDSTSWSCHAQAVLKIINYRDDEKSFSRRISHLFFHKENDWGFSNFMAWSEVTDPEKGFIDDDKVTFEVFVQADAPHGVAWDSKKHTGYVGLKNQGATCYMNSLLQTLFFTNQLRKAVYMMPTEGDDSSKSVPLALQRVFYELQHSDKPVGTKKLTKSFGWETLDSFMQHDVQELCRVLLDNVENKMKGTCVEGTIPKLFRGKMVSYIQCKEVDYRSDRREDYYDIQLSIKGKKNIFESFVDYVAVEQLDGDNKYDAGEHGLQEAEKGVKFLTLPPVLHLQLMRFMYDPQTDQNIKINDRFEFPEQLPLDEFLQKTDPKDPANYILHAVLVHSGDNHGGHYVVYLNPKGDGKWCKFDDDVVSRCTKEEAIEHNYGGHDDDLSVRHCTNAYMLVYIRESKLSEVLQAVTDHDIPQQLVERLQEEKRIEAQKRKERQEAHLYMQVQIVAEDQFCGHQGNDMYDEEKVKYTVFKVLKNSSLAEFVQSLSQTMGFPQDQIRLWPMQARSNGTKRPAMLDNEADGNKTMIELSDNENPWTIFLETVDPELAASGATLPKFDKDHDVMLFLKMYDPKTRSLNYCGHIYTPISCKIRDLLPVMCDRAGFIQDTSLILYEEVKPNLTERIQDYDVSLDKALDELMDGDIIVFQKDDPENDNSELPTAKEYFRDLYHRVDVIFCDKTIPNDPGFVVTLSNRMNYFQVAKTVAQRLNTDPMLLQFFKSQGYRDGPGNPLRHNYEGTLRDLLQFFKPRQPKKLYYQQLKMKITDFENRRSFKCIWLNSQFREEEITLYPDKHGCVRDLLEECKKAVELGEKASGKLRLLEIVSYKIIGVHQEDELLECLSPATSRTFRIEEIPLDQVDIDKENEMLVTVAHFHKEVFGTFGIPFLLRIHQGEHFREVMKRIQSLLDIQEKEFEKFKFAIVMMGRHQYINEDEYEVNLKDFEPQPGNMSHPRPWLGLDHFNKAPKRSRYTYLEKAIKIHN

Each molecule was assayed against Ubiquitin carboxyl-terminal hydrolase 7 (Homo sapiens) (UniProt Q93009) (assay: inhibitors of human USP7 deubiquitinase (AID 1645854)). Details: purified USP7, Ub-rhodamine cleavage fluorescence; at 20 µM; stronger effect = higher value.

Row | SMILES | inhibition
1 | O=C(COC(=O)C(O)(c1ccccc1)c1ccccc1)NCc1ccc2c(c1)OCO2 | inactive: -9.46%
2 | O=C(c1ccc2c(c1)OCO2)N(Cc1ccco1)C1CCN(CCc2ccccn2)CC1 | inactive: -8.37%
3 | COc1ccc(CCN2CCC(N(Cc3cccnc3)C(=O)c3cccc(C#N)c3)CC2)cc1 | inactive: -10.9%
4 | Cc1[nH]c2c(N(C(=O)Nc3ccccc3)C3CCN(Cc4ccccc4)CC3)cccc2c1C | inactive: -5.21%
5 | N#Cc1cccc(C(=O)N(Cc2ccco2)C2CCN(CCc3ccc(Cl)cc3)CC2)c1 | inactive: -13.3%
6 | COc1ccc(CCN2CCC(N(Cc3ccco3)C(=O)c3ccc(S(C)(=O)=O)cc3)CC2)cc1 | inactive: -10.1%
7 | CN1C(=O)C2C(NC(=NCc3ccco3)N2CCc2ccccc2)N(C)C1=O (stereo unspecified) | inactive: -1.92%
8 | N#Cc1cccc(C(=O)N(Cc2ccco2)C2CCN(CCc3ccccn3)CC2)c1 | inactive: 0.00896%
9 | CS(=O)(=O)c1ccc(C(=O)N(Cc2cccnc2)C2CCN(CCc3ccc(Cl)cc3)CC2)cc1 | inactive: -26.5%
10 | CS(=O)(=O)c1ccc(C(=O)N(Cc2ccco2)C2CCN(CCc3ccccn3)CC2)cc1 | inactive: -8.56%
11 | N#Cc1cccc(C(=O)N(Cc2cccnc2)C2CCN(CCc3ccccn3)CC2)c1 | inactive: -5.8%
